The values that follow are results of earlier work, collected in patent US10669261B2, “Heteroarylhydroxypyrimidinones as agonists of the APJ receptor” (BRISTOL-MYERS SQUIBB COMPANY, priority 2015, dated 2020).

Protein sequences, listed by entry. Tags and fused reporters are not part of them. Lines headed by an entry give the natural chain unless they say otherwise; changes in a name come on top.
UniProt P35414: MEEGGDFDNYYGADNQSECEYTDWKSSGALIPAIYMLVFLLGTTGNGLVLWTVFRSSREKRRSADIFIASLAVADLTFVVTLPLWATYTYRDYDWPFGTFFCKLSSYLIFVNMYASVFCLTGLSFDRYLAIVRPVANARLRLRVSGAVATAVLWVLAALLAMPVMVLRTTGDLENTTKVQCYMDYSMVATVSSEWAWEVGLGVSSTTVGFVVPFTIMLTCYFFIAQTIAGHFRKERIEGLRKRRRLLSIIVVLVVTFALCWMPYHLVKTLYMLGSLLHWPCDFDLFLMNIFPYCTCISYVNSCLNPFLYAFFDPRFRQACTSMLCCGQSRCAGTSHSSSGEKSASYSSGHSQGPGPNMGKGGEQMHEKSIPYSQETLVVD

The data set addresses APJ receptor (Homo sapiens, UniProt P35414). The note with it: cited from earlier work.

As for apelin, the binding affinity result is “sub-nanomolar”.
